The structures appear in SMILES notation. Only a part is listed here, and it is no random draw. Results filed as inconclusive are left out. The source made the active and inactive calls. Calls follow the shape of the dose curve; as a rule, active = well fitted inhibition curve with a large enough effect; inconclusive = small, poorly fitted or top-dose-only effect; inactive = flat fitted curve, though single readings scatter.
% is scaled to controls: 0 for no effect and ±100 for the full control effect.

The chains behind the UniProt entries cited, without tags or fusion partners.
UniProt P07203, whole entry, looked up: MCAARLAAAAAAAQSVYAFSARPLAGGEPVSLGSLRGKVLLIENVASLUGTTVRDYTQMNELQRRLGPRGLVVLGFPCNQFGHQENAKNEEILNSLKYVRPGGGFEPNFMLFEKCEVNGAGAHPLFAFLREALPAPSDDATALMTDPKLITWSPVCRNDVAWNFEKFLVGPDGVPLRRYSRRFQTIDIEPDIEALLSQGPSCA

The target in this assay is Glutathione peroxidase 1 (Homo sapiens) (UniProt P07203). Nature of the assay: Primary qHTS Assay for Inhibitors of Recombinant Selenoprotein Glutathione Peroxidase 1 (GPX1) (AID 1845191). Also: nearly all actives have a fitted effect of over 65% in size. The conditions noted are these: recombinant GPX1, GR-coupled NADPH fluorescence, 15 min; activity, negative = inhibition: at 48.8 µM (top of the series). The text has this:
Assay Provider: Elias S.J. Arner MD PhD.
Department of Medical Biochemistry and Biophysics
Karolinska Institutet, Solna, Stockholm, Sweden
Selenoprotein glutathione peroxidases (GPX), like the ubiquitously expressed GPX1 and the ferroptosis modulator GPX4, enact their antioxidant activities by reducing hydroperoxides using glutathione. […] GPX1 and GPX4 inhibitors have thus shown promise as anti-cancer agents. Existing inhibitors are often promiscuous, or modulate GPX activity only indirectly, so novel direct inhibitors identified through screening against GPX1 and GPX4 could be valuable. Here, we developed optimized glutathione reductase (GR)-coupled GPX assays for the biochemical high-throughput screen (HTS) of almost 12,000 compounds with known mechanisms of action. Initial hits were triaged using a GR counter-screen, assessed for isoform specificity using a separate GPX2 assay, and were assessed for general selenocysteine-targeting activity using a thioredoxin reductase (TXNRD1) assay. With this suite of assays, we identified novel GPX1/GPX2- and GPX4-specific inhibitors and can here present a validated pipeline for future discovery research for selenoprotein-targeting agents.
SEQUENCE No. (e.g., 1, 2, 3, etc.); […] (e.g., Cells, Incubation, Reagent, etc.); VALUE; DESCRIPTION.
1; Reagent 1; 3 uL; GPx1 enzyme or no enzyme control in 1536-well, black, solid Greiner assay plate.
2; Compound; 25 nL; Kalypsis pin tool (Wako USA) equipped with a 1536-well pin head.
3; Incubation; 30 min; room temperature.
4; Reagent 2; 1 uL; 10 nM GPX1, 1 mM GSH, 0.5 mM CHP, 0.5 mM NADPH, 100 nM GR, 0.01% BSA substrate
5; Detection; Fluorescence; ViewLux microplate reader, excitation 340 nm and emission 450 nm.
6; Incubation; 15 min; room temperature.
7; Detection; Fluorescence; ViewLux microplate reader, excitation 340 nm and emission 450 nm.
NOTES (numbers refer to Sequence numbers above)
1. 3 uL of 16.66 nM GPX1 and 0.016% BSA in assay buffer (50 mM Tris-HCl, 2 mM EDTA (pH 7.5), 150 mM NaCl) was added to columns 3-48 of 1536-well assay plates using a BioRAPTR Flying Reagent Dispenser (Let's Go Robotics (LGR), Carlsbad, CA). A no-enzyme control (0.01% BSA in TES assay buffer) was added to columns 1-2.
2. 25 nL of test compounds and DMSO controls were added to each well with a pin tool (Kalypsys).
3. The assay plates were incubated for 30 minutes at room temperature.
4. 1 uL of master mix (500 nM glutathione reductase (GR), 5 mM reduced glutathione (GSH), 2.5 mM NADPH in assay buffer) was added. 1 uL of cumene hydroperoxide (CHP) ([2.5 mM] in 50% EtOH) was then added within 5 minutes to initiate the reaction. Final concentrations were: 10 nM GPX1, 1 mM GSH, 0.5 mM CHP, 0.5 mM NADPH, 100 nM GR, 0.01% BSA.
5. Initial fluorescence readout (t=0) at 340/450 nm was measured using a ViewLux multimodal detector (PerkinElmer, Waltham, MA).
7. Endpoint fluorescence readout (t=15) at 340/450 nm was measured 15 min after room temperature incubation.
(In general: qHTS replaces the single test concentration by a dilution series.)
`N[C@@H](Cc1ccc([N+]([O-])(CCCl)CCCl)cc1)C(=O)O`: the result was inactive. In the case of `CN(C(=O)Cc1ccc(Cl)c(Cl)c1)[C@@H]1CCCC[C@@H]1N1CCCC1`, the activity, negative = inhibition was inactive: -29.5%. `CN(C(=O)Cc1ccc(Cl)c(Cl)c1)[C@@H]1CC[C@]2(CCCO2)C[C@H]1N1CCCC1`: the activity, negative = inhibition is inactive: -7.21%.

With `CN(C(=O)Cc1ccc(Cl)c(Cl)c1)[C@H]1CCCC[C@H]1N1CCCC1`, the outcome was inactive. As to `O=C(O[C@H]1CN2CCC1CC2)C1NCc2ccccc2[C@@H]1c1ccccc1` (stereo partly specified), the activity, negative = inhibition is inactive: -16.7%. The same measure, in the same setting: to `CN(C(=O)Cc1ccccc1)[C@@H]1CC[C@]2(CCCO2)C[C@H]1N1CCCC1` belongs inactive: -26.4%.

On to `CCn1c(=O)n([C@@H]2CCN(CC3CCCCCCC3)C[C@H]2CO)c2ccccc21`, for which the result was inactive.

In the case of `NC(=O)Nc1ccc([As](=O)(O)O)cc1`, the activity, negative = inhibition is inactive: -5.29%. Consider `CN(C)C1(c2ccccc2)CCC2(CC1)OCCc1c2[nH]c2ccc(F)cc12` (stereo unspecified), for which the result was inactive. Take `CN(C(=O)Cc1ccc(Cl)c(Cl)c1)[C@H]1CCCC[C@@H]1N1CCCC1`: the activity, negative = inhibition was inactive: 3.42% and the outcome was inactive.

The record behind these values is PubChem BioAssay (NCATS).
